Laboratory results reported in patent publication US6534482B1, “Expression vectors for stimulating an immune response and methods of using the same” (priority 1998, dated 2003).

Test system: CTL response

CSCC[C@H](NC(=O)[C@@H](N)Cc1ccc(O)cc1)C(=O)N[C@@H](CC(=O)O)C(=O)N[C@@H](CC(=O)O)C(=O)N[C@H](C(=O)N[C@H](C(=O)N[C@@H](CC(C)C)C(=O)NCC(=O)N[C@H](C(=O)O)C(C)C)C(C)C)C(C)C
immunogenicity of the peptide administered in IFA (in words) (HLA transgenic mice): significant levels of CTL activity | Immunogenicity In Vivo (IFA): CTL Response (Geo. Mean ΔLU) (geometric mean of positive cultures, peptide with T helper peptide in IFA): 8.2 (2.3) ΔLU | Immunogenicity In Vivo (IFA): No. CTL-Positive Cultures (peptide 50 μg/mouse with T helper peptide in IFA s.c., positive/total cultures): 6/6
